Among the data in patent US12195774B2, “Antidotes to factor XA inhibitors” (Alexion Pharmaceuticals, Inc., priority 2018, dated 2025) are procoagulant activity values, retold here.

For the assay, the system named is procoagulant activity. As to the kind of experiment: in vitro fXa activity assays (procoagulant activity). In kind it is biochemical. To be noted: such as fXa activity assays.

Regarding “fX-S395A: recombinant factor X active-site mutant”, the procoagulant activity entry is listed as “essentially has no procoagulant activity”.
